Source: EP4840855A1, “SULFONAMIDE DERIVATIVE, PREPARATION METHOD THEREFOR AND USE THEREOF” (dated 2026)

These molecules were tested on Jurkat (Clone E6-1) cells (assay: Inhibition on Jurkat cell proliferation (CellTiter-Glo cell viability)). Settings: 72 hours culture.
Method: The following method was used to determine the effect of the compounds of the present disclosure on Jurkat cell proliferation. Jurkat (Clone E6-1) cells were purchased from the Cell Resource Center of Shanghai Institutes for Biological Sciences, Chinese Academy of Sciences, and were cultured in RPMI 1640 medium containing 10% fetal bovine serum, 100 U penicillin, and 100 µg/mL streptomycin. Cell viability was measured using a CellTiter-Glo® Luminescent Cell Viability Assay kit (Promega, catalog number G7573).
The experiment was performed according to the kit's manual, briefly summarized as follows: test compounds were first dissolved in DMSO to prepare 10 mM stock solutions, which were then diluted with medium to prepare test samples. The final concentration range of the compounds was from 10000 nM to 1.52 nM. Cells in the logarithmic growth phase were seeded into a 96-well cell culture plate at a density of 1000 cells per well, and test compounds were added. The cells were cultured in a 37°C CO2 incubator for 72 hours. After culturing, 50 µL of CellTiter-Glo detection reagent was added to each well, the plate was shaken for 5 minutes, and allowed to stand for 10 minutes. The luminescence of each well was then measured using a microplate reader in Luminescence mode. The percentage inhibition at each concentration point was calculated by comparison with the control group (0.1% DMSO). Nonlinear regression analysis of compound concentration logarithm versus inhibition rate was performed using GraphPad Prism 9 software to obtain the IC50 values of the compounds for inhibiting cell proliferation, as shown in Table 1. Table 1 IC50 Data for Inhibition on Jurkat Cell Proliferation by the Compounds of the Present Disclosure
CCOc1cncc(-c2ccc(NC(=O)C3(c4cc(NS(C)(=O)=O)ncn4)CC4CC4C3)cc2)n1 (stereo not shown) was tested, and the IC50 was 15.6 nM. Molecule O=C(NC1(c2cc(NS(=O)(=O)C3CC3)ncn2)CC2CC2C1)c1ncc(-c2cncc(C(F)(F)F)n2)s1 (stereo not shown) has an IC50 of 21.5 nM. For CCOc1cncc(-c2ccc(NC(=O)C3(c4nccc(NS(=O)(=O)C5CC5)n4)Cc4ccccc4C3)cc2)n1, the IC50 was 25.7 nM. Molecule O=C(NC1(c2cc(NS(=O)(=O)C3CC3)ncn2)C[C@H]2CC[C@@H](C1)O2)c1ncc(-c2cnn3ccc(Cl)cc23)s1 (stereo partly shown) has an IC50 of 41.7 nM. Work on CCOc1cncc(-c2ccc(NC(=O)C3(c4cc(NS(=O)(=O)C(F)F)ccn4)CC4CC4C3)nc2)n1 (stereo not shown) yielded an IC50 of 9.11 nM. Work on CCOc1cncc(-c2ccc(NC(=O)C3(c4nccc(NS(=O)(=O)C5CC5)n4)CC4CC4C3)c(C#N)c2)n1 (stereo not shown) yielded an IC50 of 33.4 nM. Work on CCOc1cncc(-c2ccc(NC(=O)C3(c4cc(NS(=O)(=O)CC)ncn4)CC4CCC(C3)O4)cc2)n1 (stereo not shown) yielded an IC50 of 11.9 nM. CCOc1cncc(-c2ccc(NC(=O)C3(c4nccc(NS(=O)(=O)C5CC5)n4)CC4CC4C3)c(OC(F)(F)F)c2)n1 (stereo not shown) was tested, and the IC50 was 26.9 nM. COc1cncc(-c2cnc(C(=O)NC3(c4cc(NS(=O)(=O)C5CC5)ncn4)CC4CC4C3)s2)n1 (stereo not shown) gave an IC50 of 24.4 nM. CCOc1cncc(-c2ccc(NC(=O)C3(c4nccc(NS(=O)(=O)C5CC5)n4)C[C@H]4CC[C@@H](C3)O4)c(OC)c2)n1 (stereo partly shown) showed an IC50 of 14.1 nM. With CCOc1cncc(-c2ccc(NC(=O)C3(c4nccc(NS(=O)(=O)C5CC5)n4)CC4CCC(C3)O4)cc2)n1 (stereo not shown) the IC50 was 2.79 nM. Work on CCOc1cncc(-c2ccc(NC(=O)C3(c4cc(NS(=O)(=O)C5CC5)ccn4)Cc4nccnc4C3)cc2)n1 yielded an IC50 of 5.2 nM. In the case of CCOc1cncc(-c2ccc(NC(=O)C3(c4cc(NS(=O)(=O)C5CC5)ncn4)[C@@H]4CCC[C@@H]43)c(F)c2)n1 (stereo partly shown), the IC50 is reported as 16.6 nM. For CCOc1cncc(-c2cnc(C(=O)NC3(c4ccnc(NS(=O)(=O)C5CC5)n4)CC4CC4C3)s2)n1 (stereo not shown), the IC50 was 81.4 nM. Molecule CCOc1cncc(-c2ccc(C(=O)NC3(c4cc(NS(=O)(=O)C5CC5)ncn4)CC4CC4C3)cc2)n1 (stereo not shown) has an IC50 of 31.9 nM. With CCOc1cncc(-c2sc(C(=O)NC3(c4cc(NS(=O)(=O)C5CC5)ncn4)CC4CC4C3)nc2C)n1 (stereo not shown) the IC50 was 2.49 nM. In the case of CCOc1cncc(-c2ccc(NC(=O)C3(c4cc(NS(=O)(=O)C5CC5)ccn4)Cc4ccccc4C3)nc2)n1, the IC50 is reported as 27.2 nM. In the case of COc1ccn2ncc(-c3ccc(NC(=O)C4(c5cc(NS(=O)(=O)C6CC6)ncn5)CC5CC5C4)cc3)c2c1 (stereo not shown), the IC50 is reported as 76.9 nM. CCOc1cncc(-c2ccc(NC(=O)C3(c4ccnc(NS(=O)(=O)C5CC5)n4)CC4CC4C3)c(F)c2)n1 (stereo not shown) gave an IC50 of 64.9 nM. Molecule O=C(Nc1ccc(-c2cnn3ccc(Cl)cc23)cn1)C1(c2cc(NS(=O)(=O)C3CC3)ccn2)CC2CC2C1 (stereo not shown) has an IC50 of 16.9 nM. For CCOc1cncc(-c2cnc(NC(=O)C3(c4nccc(NS(=O)(=O)C5CC5)n4)CC4CC4C3)c(F)c2)n1 (stereo not shown), the IC50 was 50.6 nM. Molecule CCOc1cncc(-c2cnc(C(=O)NC3(c4cncc(NS(=O)(=O)C5CC5)n4)CC4CC4C3)s2)n1 (stereo not shown) has an IC50 of 44.5 nM. Molecule CCOc1cncc(-c2ccc(NC(=O)C3(c4cc(NS(=O)(=O)C5CC5)ncn4)[C@@H]4CN(C)C[C@@H]43)cc2)n1 (stereo partly shown) has an IC50 of 40.8 nM. With CCOc1cncc(-c2ccc(NC(=O)C3(c4cc(NS(=O)(=O)CC)ncn4)CC4CC4C3)nc2)n1 (stereo not shown) the IC50 was 4.79 nM. Work on CCOc1cncc(-c2ccc(NC(=O)C3(c4cc(NS(=O)(=O)C5CC5)ccn4)Cc4ccccc4C3)cc2)n1 yielded an IC50 of 8.45 nM. For CCOc1cncc(-c2ccc(NC(=O)C3(c4ccnc(NS(=O)(=O)C5CC5)n4)C4CN(C)CC43)cc2)n1 (stereo not shown), the IC50 was 48.9 nM. With CCOc1cncc(-c2ccc(NC(=O)C3(c4cc(NS(=O)(=O)C5CC5)nc(C)n4)CC4CC4C3)cc2)n1 (stereo not shown) the IC50 was 40.2 nM. Molecule CCOc1cncc(-c2cnc(C(=O)NC3(c4cc(NS(=O)(=O)C5CC5)ncn4)C[C@H]4CC[C@@H](C3)O4)s2)n1 (stereo partly shown) has an IC50 of 4.29 nM. In the case of CCOc1cncc(-c2ccc(C(=O)NC3(c4cc(NS(=O)(=O)C5CC5)ncn4)CC4CC4C3)nc2)n1 (stereo not shown), the IC50 is reported as 26.5 nM. CCOc1cncc(-c2ccc(NC(=O)C3(c4cc(NS(=O)(=O)C5CC5)ncn4)CC4CCC(C3)O4)c(OC)c2)n1 (stereo not shown) was tested, and the IC50 was 9.17 nM. CCOc1cncc(-c2cnc(C(=O)NC3(c4nccc(NS(=O)(=O)C5CC5)n4)Cc4ccccc4C3)s2)n1 was tested, and the IC50 was 98.7 nM. Molecule CCOc1cncc(-c2ccc(NC(=O)C3(c4cnnc(NS(=O)(=O)C5CC5)c4)CC4CC4C3)cc2)n1 (stereo not shown) has an IC50 of 30.1 nM. CCOc1cncc(-c2ccc(NC(=O)C3(c4nccc(NS(=O)(=O)C5CC5)n4)CC4CC4C3)c(C)c2)n1 (stereo not shown) showed an IC50 of 57.2 nM. With CCOc1cncc(-c2ncc(C(=O)NC3(c4cc(NS(=O)(=O)C5CC5)ncn4)C[C@H]4CC[C@@H](C3)O4)s2)n1 (stereo partly shown) the IC50 was 37.9 nM. CCOc1cncc(-c2ccc(NC(=O)C3(c4cc(NS(=O)(=O)C5CC5)ncn4)CC4CCC(C3)O4)cc2)n1 (stereo not shown) gave an IC50 of 1.37 nM. Cc1ccn2ncc(-c3ccc(NC(=O)C4(c5cc(NS(=O)(=O)C6CC6)ncn5)CC5CC5C4)cc3)c2c1 (stereo not shown) was tested, and the IC50 was 13.4 nM. CCOc1cncc(-c2ccc(NC(=O)C3(c4nccc(NS(=O)(=O)C5CC5)n4)Cc4ccccc4C3)nc2)n1 showed an IC50 of 40.8 nM. CCOc1cncc(-c2ccc(NC(=O)C3(c4cc(NS(=O)(=O)C5CC5)ncn4)CC4CCC(C3)O4)nc2)n1 (stereo not shown) showed an IC50 of 4.1 nM. Molecule CCOc1cncc(-c2ccc(NC(=O)C3(c4cc(NS(=O)(=O)C5CC5)ncn4)CC4CCCC4C3)cc2)n1 (stereo not shown) has an IC50 of 34.8 nM. For O=C(NC1(c2cc(NS(=O)(=O)C3CC3)ncn2)CC2CC2C1)c1ncc(-c2cncc(Cl)c2)s1 (stereo not shown), the IC50 was 86.1 nM. For CCOc1cncc(-c2ccc(NC(=O)C3(c4ccnc(NS(=O)(=O)C5CC5)n4)C[C@H]4CC[C@@H](C3)O4)nc2)n1 (stereo partly shown), the IC50 was 14.8 nM. In the case of CCOc1cncc(-c2nnc(C(=O)NC3(c4cc(NS(=O)(=O)C5CC5)ncn4)CC4CC4C3)s2)n1 (stereo not shown), the IC50 is reported as 8.3 nM. With CCOc1cncc(-c2ccc(NC(=O)C3(c4ccnc(NS(=O)(=O)C5CC5)n4)C[C@H]4CC[C@@H](C3)O4)c(OC)c2)n1 (stereo partly shown) the IC50 was 54.6 nM. In the case of CCOc1cncc(-c2ccc(NC(=O)C3(c4nccc(NS(C)(=O)=O)n4)CC4CC4C3)nc2)n1 (stereo not shown), the IC50 is reported as 11.6 nM. O=C(Nc1ccc(-c2cnn3ccc(Cl)cc23)cn1)C1(c2cc(NS(=O)(=O)C3CC3)ncn2)CC2CC2C1 (stereo not shown) showed an IC50 of 28.7 nM. Work on CCOc1cncc(-c2ccc(NC(=O)C3(c4ccnc(NS(=O)(=O)C5CC5)n4)CC4CC4C3)nc2)n1 (stereo not shown) yielded an IC50 of 67.4 nM. For O=C(Nc1ccc(-c2cnn3ccc(Cl)cc23)cn1)C1(c2cncc(NS(=O)(=O)C3CC3)n2)CC2CC2C1 (stereo not shown), the IC50 was 42.8 nM. In the case of CCOc1cncc(-c2cnc(C(=O)NC3(c4nccc(NS(=O)(=O)C5CC5)n4)CC4CC4C3)s2)n1 (stereo not shown), the IC50 is reported as 12.1 nM. Work on “3-(4-(cyclopropanesulfonamido)pyrimidin-2-yl)-N-(4-(6-ethoxypyrazin-2-yl)-2,6-difluorophenyl) bicyclo[3.1.0]hexane-3-carboxamide” yielded an IC50 of 84.9 nM. With CCOc1cncc(-c2ccc(NC(=O)C3(c4ccnc(NS(=O)(=O)C5CC5)n4)CCc4nn(C)cc4C3)cc2)n1 (stereo not shown) the IC50 was 21.7 nM. With CCOc1cncc(-c2ccc(NC(=O)C3(c4cc(NS(=O)(=O)C5CC5)ncn4)[C@@H]4CCC[C@@H]43)cc2)n1 (stereo partly shown) the IC50 was 3.3 nM. CCOc1cncc(-c2ccc(NC(=O)C3(c4ccnc(NS(=O)(=O)C5CC5)n4)C[C@H]4CC[C@@H](C3)O4)c(F)c2)n1 (stereo partly shown) showed an IC50 of 49.4 nM. CCOc1cncc(-c2ccc(NC(=O)C3(c4cc(NS(=O)(=O)C5CC5)ncn4)CC4CC4C3)nc2)n1 (stereo not shown) showed an IC50 of 6.96 nM. CCOc1cncc(-c2ccc(NC(=O)C3(c4ccnc(NS(=O)(=O)C5CC5)n4)[C@@H]4COC[C@@H]43)cc2)n1 (stereo partly shown) showed an IC50 of 60.8 nM. CCOc1cncc(-c2cnc(C(=O)NC3(c4cc(NS(=O)(=O)C5CC5)ccn4)CC4CC4C3)s2)n1 (stereo not shown) was tested, and the IC50 was 2.97 nM.
